Test results from patent US20110313672A1, “CELLULAR ANTIOXIDANT ACTIVITY (CAA) ASSAY” (CORNELL UNIVERSITY, priority 2007, published 2011).

Test system: HepG2 cells
Experiment: Cytotoxicity toward HepG2 cells (methylene blue staining)
Protocol: Briefly, HepG2 cells are seeded at 4×10^4/well on a 96-well plate in 100 μL growth medium and incubated for 24 h at 37° C. The medium is removed and the cells are washed with PBS. Treatments of fruit extracts or antioxidant compounds in 100 μL treatment medium (Williams' Medium E supplemented with 2 mM L-glutamine and 10 mM Hepes) are applied to the cells and the plates are incubated at 37° C. for 24 h. The treatment medium is removed and the cells are washed with PBS. A volume of 50 μL/well methylene blue staining solution (98% HBSS, 0.67% glutaraldehyde, 0.6% methylene blue) is applied to each well and the plate is incubated at 37° C. for 1 h.
Excess dye is removed by immersing the plate in fresh deionized water until the water appears clear. […] The absorbance is read at 570 nm with blank subtraction using, for example a MRX II DYNEX spectrophotometer (DYNEX Inc., Chantilly, Va.). Concentrations of pure compounds or fruit extracts that decrease the absorbance by more than 10% when compared to the control are considered to be cytotoxic.
Cytotoxicity was measured using the method of Oliver et al. (31) with modifications by our laboratory (32). […] The absorbance was read at 570 nm with blank subtraction using the MRX II DYNEX spectrophotometer (DYNEX Inc., Chantilly, Va.). […]
The median cytotoxic concentration (CC50) was calculated for each fruit. […]

**Q.** For (+)-catechin, which “Cytotoxicity (cytotoxic concentration)” value (Example 1, dose at which the cell number is reduced by more than 10% after 24 h treatment) is on record?
**A.** >500 µM

**Q.** And the CC50 (read-out: cytotoxicity CC50, Example 3, median cytotoxic concentration, 24 h)?
**A.** > 1000 µM
